Assay results published in patent publication US20060216330A1, “Peptides having an ace inhibiting effect” (priority 2003, published 2006).

Chains of the proteins cited; added tags and fusions are not shown. Residues count along the entry.
UniProt P12821, 30-1306, species assumed: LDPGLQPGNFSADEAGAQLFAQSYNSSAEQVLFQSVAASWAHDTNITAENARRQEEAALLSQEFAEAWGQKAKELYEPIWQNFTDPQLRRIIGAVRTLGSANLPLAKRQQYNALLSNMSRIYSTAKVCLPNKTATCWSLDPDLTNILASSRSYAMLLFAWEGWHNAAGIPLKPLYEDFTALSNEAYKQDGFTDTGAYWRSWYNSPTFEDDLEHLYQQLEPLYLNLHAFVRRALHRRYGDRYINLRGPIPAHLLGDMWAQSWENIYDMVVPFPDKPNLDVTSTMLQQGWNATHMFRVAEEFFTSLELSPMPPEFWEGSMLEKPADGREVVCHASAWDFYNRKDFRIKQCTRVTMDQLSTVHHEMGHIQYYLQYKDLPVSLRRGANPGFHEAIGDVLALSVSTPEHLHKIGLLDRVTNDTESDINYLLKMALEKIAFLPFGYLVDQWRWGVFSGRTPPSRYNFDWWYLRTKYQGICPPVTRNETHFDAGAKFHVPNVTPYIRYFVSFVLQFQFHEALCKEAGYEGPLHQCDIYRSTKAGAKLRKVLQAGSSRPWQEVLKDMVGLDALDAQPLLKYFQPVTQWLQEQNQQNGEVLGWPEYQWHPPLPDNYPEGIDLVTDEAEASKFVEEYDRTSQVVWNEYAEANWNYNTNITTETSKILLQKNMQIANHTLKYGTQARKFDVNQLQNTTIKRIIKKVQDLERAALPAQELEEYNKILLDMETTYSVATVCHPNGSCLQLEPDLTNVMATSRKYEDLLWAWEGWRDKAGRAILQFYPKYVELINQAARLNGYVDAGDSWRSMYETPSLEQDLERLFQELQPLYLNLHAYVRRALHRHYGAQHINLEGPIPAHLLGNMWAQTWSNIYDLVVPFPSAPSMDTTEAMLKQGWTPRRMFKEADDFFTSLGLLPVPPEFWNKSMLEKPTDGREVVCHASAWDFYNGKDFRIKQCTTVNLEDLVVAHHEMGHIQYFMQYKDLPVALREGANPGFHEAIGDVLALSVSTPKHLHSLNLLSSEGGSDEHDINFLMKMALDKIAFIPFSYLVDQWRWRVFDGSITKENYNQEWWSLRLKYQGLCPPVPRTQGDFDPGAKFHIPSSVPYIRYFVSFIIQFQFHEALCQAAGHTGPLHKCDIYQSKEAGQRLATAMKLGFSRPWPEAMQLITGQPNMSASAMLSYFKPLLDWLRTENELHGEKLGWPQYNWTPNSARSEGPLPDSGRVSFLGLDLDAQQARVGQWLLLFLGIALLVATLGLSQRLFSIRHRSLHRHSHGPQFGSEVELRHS

Tests used:
[1] = In vitro gastro-intestinal digestion of Biozate (artificial human gastro intestinal tract); settings: for Concentration, Original solution: Biozate original solution before digestion; for Concentration, t = 0 min: simulated gastric fluid pH 3.5, 37° C.; for Concentration, t = 60 min: end of gastric phase; for Concentration, t = 65 min: simulated intestinal fluid (pancreatin, pH 6.8); for Concentration, t = 75 min / Concentration, t = 90 min / Concentration, t = 120 min / Concentration, t = 150 min / Concentration, t = 180 min: simulated intestinal fluid
ACE = ACE (Homo sapiens, UniProt P12821); experiment: ACE activity measurement with fluorogenic substrate Abz-FRK(Dnp)P-OH

Concentration, Original solution [1] [µg/mL]	resistance against GIT digestion ([1]; artificial gastro-intestinal tract)	Concentration, t = 0 min [1] [µg/mL]	Concentration, t = 60 min [1] [µg/mL]	Concentration, t = 65 min [1] [µg/mL]	Concentration, t = 75 min [1] [µg/mL]	Concentration, t = 90 min [1] [µg/mL]	Concentration, t = 120 min [1] [µg/mL]	Concentration, t = 150 min [1] [µg/mL]	Concentration, t = 180 min [1] [µg/mL]	IC50 (ACE) [µM]	SMILES
101	high resistance against GIT digestion	99	107	106	102	68	79	63	24	20	CC[C@H](C)[C@H](N)C(=O)N[C@H](C(=O)N[C@@H](C)C(=O)N[C@@H](CCC(=O)O)C(=O)N[C@@H](CCCCN)C(=O)O)[C@@H](C)CC [IIAEK]
23	–	24	30	6	0	0	0	0	0	300	CC[C@H](C)[C@H](N)C(=O)N1CCC[C@H]1C(=O)N[C@@H](C)C(=O)N[C@H](C(=O)N[C@@H](Cc1ccccc1)C(=O)O)C(C)C [IPAVF]
